Test results as given in EP1147083B1, “ARYLPIPERAZINYL-CYCLOHEXYL INDOLE DERIVATIVES FOR THE TREATMENT OF DEPRESSION” (Wyeth, priority 1999, dated 2000).

By UniProt entry, the sequences of proteins in these tests, tags left out.
UniProt P31652, whole entry: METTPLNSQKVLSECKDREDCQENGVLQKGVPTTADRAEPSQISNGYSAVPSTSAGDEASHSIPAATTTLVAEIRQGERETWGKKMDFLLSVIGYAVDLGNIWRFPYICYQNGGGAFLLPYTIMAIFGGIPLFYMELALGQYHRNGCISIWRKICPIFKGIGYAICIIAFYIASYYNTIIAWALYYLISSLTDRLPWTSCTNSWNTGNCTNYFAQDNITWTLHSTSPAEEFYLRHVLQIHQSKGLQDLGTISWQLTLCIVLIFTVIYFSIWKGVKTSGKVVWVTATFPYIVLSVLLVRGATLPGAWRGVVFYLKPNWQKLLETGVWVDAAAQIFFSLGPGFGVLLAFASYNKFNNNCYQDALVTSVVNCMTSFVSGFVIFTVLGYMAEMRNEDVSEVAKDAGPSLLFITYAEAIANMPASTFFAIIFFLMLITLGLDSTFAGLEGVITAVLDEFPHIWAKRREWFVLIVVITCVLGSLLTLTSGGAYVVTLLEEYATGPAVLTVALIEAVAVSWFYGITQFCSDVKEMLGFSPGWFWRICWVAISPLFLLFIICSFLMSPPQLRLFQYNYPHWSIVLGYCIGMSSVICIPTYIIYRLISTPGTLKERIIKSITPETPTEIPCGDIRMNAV

Target: T1, serotonin transporter (Rattus norvegicus, UniProt P31652)
T1 construct: frontal cortical membranes prepared from male Sprague-Dawley rats were incubated with ^3H-paroxetine; from tissue; host or cells: frontal cortex of male Sprague-Dawley rats
Assay: Serotonin transporter affinity, 3H-paroxetine binding to frontal cortical membranes
Set-up: species or system male Sprague-Dawley rats
Settings: 3H-paroxetine 0.1 nM, read-out: ST (Kj, nM,)

| SMILES | Ki |
| --- | --- |
| Fc1ccc2[nH]cc([C@H]3CC[C@H](N4CCN(c5cccc6cccnc56)CC4)CC3)c2c1 [Example 27b, 8-{4-[(1,4-trans)-4-(5-Fluoro-1H-indol-3-yl)-cyclohexyl] -piperazin-1-yl}-quinoline] | 28 nM |
| CCn1cc([C@H]2CC[C@H](N3CCN(c4cccc5[nH]ccc45)CC3)CC2)c2cc(C#N)ccc21 [Example 13b, 1-Ethyl-3-{(1,4-trans)-4-[4-(1H-indol-4-yl)-piperazin-1-yl]-cyclohexyl}-1H-indole-5-carbonitrile] | 40 nM |
| CCCn1cc([C@H]2CC[C@@H](N3CCN(c4cccc5[nH]ccc45)CC3)CC2)c2cc(C#N)ccc21 [Example 14a, 3-{(1,4-cis)-4-[4-(1H-indol-4-yl)-piperazin-1-yl]-cyclohexyl}-1-propyl-1H-indole-5-carbonitrile] | 17 nM |
| Fc1ccc2[nH]cc([C@H]3CC[C@@H](N4CCN(c5cccc6cccnc56)CC4)CC3)c2c1 [Example 27a, 8-{4-[(1,4-cis)-4-(5-Fluoro-1H-indol-3-yl)-cyclohexyl] -piperazin-1-yl}-quinoline] | 8.6 nM |
| Fc1ccc2[nH]cc([C@H]3CC[C@H](N4CCN(c5cccc6[nH]ccc56)CC4)CC3)c2c1 [Example 3b, 5-Fluoro-3-[trans-4-[4-(1H-indol-4-yl)-1-piperazinyl]cyclohexyl]-1H-indole] | 10.1 nM |
| CCn1cc([C@H]2CC[C@@H](N3CCN(c4cccc5[nH]ccc45)CC3)CC2)c2cc(C#N)ccc21 [Example 13a, 1-Ethyl-3-{(1,4-cis)-4-[4-(1H-indol-4-yl)-piperazin-1-yl]-cyclohexyl}-1H-indole-5-carbonitrile] | 8.9 nM |
| CCCn1cc([C@H]2CC[C@H](N3CCN(c4cccc5[nH]ccc45)CC3)CC2)c2cc(C#N)ccc21 [Example 14b, 3-{(1,4-trans)-4-[4-(1H-indol-4-yl)-piperazin-1-yl]-cyclohexyl}-1-propyl-1H-indole-5-carbonitrile] | 40 nM |
| Cn1cc([C@H]2CC[C@@H](N3CCN(c4cccc5[nH]ccc45)CC3)CC2)c2cc(C#N)ccc21 [Example 12a, 3-{(1,4-cis)-4-[4-(1H-indol-4-yl)-piperazin-1-yl]-cyclohexyl}-1-methyl-1H-indole-5-carbonitrile] | 0.76 nM |
